Measured values taken from ChEMBL document CHEMBL1671784 (J Med Chem, 2011).

Amino acid sequences for entries named in this document (tags omitted).
UniProt P41143, whole entry: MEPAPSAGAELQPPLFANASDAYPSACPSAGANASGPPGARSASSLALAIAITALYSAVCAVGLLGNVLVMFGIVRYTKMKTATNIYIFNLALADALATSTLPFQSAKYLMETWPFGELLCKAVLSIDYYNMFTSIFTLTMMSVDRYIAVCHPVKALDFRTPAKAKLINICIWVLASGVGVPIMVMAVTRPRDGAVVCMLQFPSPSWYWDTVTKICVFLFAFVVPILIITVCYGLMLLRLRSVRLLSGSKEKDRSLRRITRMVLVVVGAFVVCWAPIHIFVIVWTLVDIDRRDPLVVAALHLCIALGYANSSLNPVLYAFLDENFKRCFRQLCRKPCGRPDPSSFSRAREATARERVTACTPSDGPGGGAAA
UniProt P35372, whole entry: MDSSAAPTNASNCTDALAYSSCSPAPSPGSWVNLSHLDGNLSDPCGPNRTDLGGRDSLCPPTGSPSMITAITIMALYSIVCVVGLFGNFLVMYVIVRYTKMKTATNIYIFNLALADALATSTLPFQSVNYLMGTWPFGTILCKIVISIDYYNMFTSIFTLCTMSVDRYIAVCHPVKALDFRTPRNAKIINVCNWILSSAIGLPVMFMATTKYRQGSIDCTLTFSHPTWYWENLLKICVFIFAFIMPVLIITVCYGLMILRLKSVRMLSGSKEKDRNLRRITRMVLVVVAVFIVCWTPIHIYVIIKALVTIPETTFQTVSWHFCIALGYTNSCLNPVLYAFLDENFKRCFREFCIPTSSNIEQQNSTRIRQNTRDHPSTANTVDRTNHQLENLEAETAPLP

Tests used:
[1] = molecular target: Delta-type opioid receptor (Homo sapiens, UniProt P41143); assay: biochemical
Mu-type opioid receptor = Mu-type opioid receptor (Homo sapiens, UniProt P35372); assay: biochemical

Compound: Cl.Cl.O=C(O)CN[C@@H]1CC[C@@]2(OCCCc3ccccc3)[C@H]3Cc4ccc(O)c5c4[C@@]2(CCN3CC2CC2)[C@H]1O5
- pEC50 [1]: 8.37
- pEC50 (Mu-type opioid receptor): 8.97

pEC50: −log10 of the molar value.
